## scFv variants of Ab-14 (light chain) against a SARS-CoV-2 spike peptide

Values reported by Engelhart et al. 2022, doi:10.1038/s41597-022-01779-4 (FLAb copy).

Binding partner: SARS-CoV-2 spike HR2 peptide, sequence PDVDLGDISGINAS.

Each scFv is VH, the linker GGGGSGGGGSGGGGS, VL, as in the parent Ab-14, and differs from it in the CDRs of the light chain only.
VH: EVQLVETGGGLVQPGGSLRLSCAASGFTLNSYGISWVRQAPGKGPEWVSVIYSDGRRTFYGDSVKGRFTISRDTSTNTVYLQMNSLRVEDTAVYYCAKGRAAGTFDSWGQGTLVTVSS
VL: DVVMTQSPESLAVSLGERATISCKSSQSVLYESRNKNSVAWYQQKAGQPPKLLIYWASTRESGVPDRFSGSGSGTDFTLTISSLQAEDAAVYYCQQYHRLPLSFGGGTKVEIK

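Library AAYL50 holds single substitutions and randomly drawn double and triple substitutions in the CDRs. AlphaSeq pools MATa yeast showing the antibodies with MATalpha yeast showing the peptide. The frequency of each diploid, read from paired DNA barcodes, reflects how well the two displayed proteins bind. Each replicate has its own calibration line, from reference interactions of the BCL2 family. Mating was done three times.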

Positions count from residue 1 of the parent VL; Y31P puts P in place of Y.
Scale: log10 of Kd in nM, estimated from mating counts; low values are strong binders.
Replicates are averaged; those with no signal do not enter the mean.
A pair that was not seen in that replicate is written "nd"; this usually means weak binding, but a binder can also be missed.
Background: pairings of library AAYL50 with three empty control strains gave a value in 18% of cases (median 4.19, 5th percentile 2.99). Values in that range, when seen in few replicates, are hard to tell from nonspecific mating. Also given: how often the same scFv was detected with the empty control strains, with their mean in brackets.

{"changes": "Y31P L102Y S103W", "replicates, log10 nM": "1.61 / 1.78 / 1.98", "mean log10 Kd (nM)": "1.79", "empty controls": "2/9 (4.46)"}
{"changes": "L30N S33G L102G", "replicates, log10 nM": "1.74 / 2.18 / 2.13", "mean log10 Kd (nM)": "2.02", "empty controls": "5/9 (4.02)"}
{"changes": "N35Q T59M L102P", "replicates, log10 nM": "3.23 / 2.06 / 2.32", "mean log10 Kd (nM)": "2.54", "empty controls": "1/9 (3.98)"}
{"changes": "K24Y S38D V39F", "replicates, log10 nM": "nd / 4.12 / nd", "mean log10 Kd (nM)": "4.12", "empty controls": "1/9 (3.95)"}
{"changes": "S33R S38A Q96L", "replicates, log10 nM": "3.00 / 2.54 / 3.72", "mean log10 Kd (nM)": "3.09", "empty controls": "1/9 (3.69)"}
{"changes": "Y31R V39N R99G", "replicates, log10 nM": "nd / nd / nd", "mean log10 Kd (nM)": "nd", "empty controls": "2/9 (3.73)"}
{"changes": "E32P E61W L100D", "replicates, log10 nM": "4.05 / nd / 4.04", "mean log10 Kd (nM)": "4.05", "empty controls": "1/9 (4.50)"}
{"changes": "S26N S58M L102D", "replicates, log10 nM": "2.24 / 1.89 / 2.44", "mean log10 Kd (nM)": "2.19", "empty controls": "4/9 (4.33)"}
{"changes": "A40Y S58V R60L", "replicates, log10 nM": "nd / nd / nd", "mean log10 Kd (nM)": "nd", "empty controls": "1/9 (3.31)"}
{"changes": "E32V K36Q T59N", "replicates, log10 nM": "4.51 / 5.16 / nd", "mean log10 Kd (nM)": "4.83", "empty controls": "3/9 (3.73)"}
{"changes": "S28T V39L A40K", "replicates, log10 nM": "nd / nd / 3.84", "mean log10 Kd (nM)": "3.84", "empty controls": "4/9 (4.16)"}
{"changes": "Y31W A57L S58L", "replicates, log10 nM": "nd / nd / nd", "mean log10 Kd (nM)": "nd", "empty controls": "1/9 (2.75)"}
{"changes": "S28W Y31L Y97T", "replicates, log10 nM": "4.52 / nd / nd", "mean log10 Kd (nM)": "4.52", "empty controls": "3/9 (4.11)"}
{"changes": "K24A S33Q R99K", "replicates, log10 nM": "1.45 / 1.61 / 1.49", "mean log10 Kd (nM)": "1.52", "empty controls": "2/9 (4.33)"}
{"changes": "L30K", "replicates, log10 nM": "1.21 / 1.19 / 1.01", "mean log10 Kd (nM)": "1.14", "empty controls": "4/9 (4.05)"}
{"changes": "K24W W56P S62A", "replicates, log10 nM": "nd / nd / nd", "mean log10 Kd (nM)": "nd", "empty controls": "0/9"}
{"changes": "S25K Q27L Y97K", "replicates, log10 nM": "5.59 / 3.50 / nd", "mean log10 Kd (nM)": "4.54", "empty controls": "6/9 (4.19)"}
{"changes": "Y31R A40T R99D", "replicates, log10 nM": "3.36 / nd / nd", "mean log10 Kd (nM)": "3.36", "empty controls": "0/9"}

2 of these entries, quoted again:

{"changes": "K24A S33Q R99K", "replicates, log10 nM": "1.45 / 1.61 / 1.49", "mean log10 Kd (nM)": "1.52", "empty controls": "2/9 (4.33)"}
{"changes": "E32P E61W L100D", "replicates, log10 nM": "4.05 / nd / 4.04", "mean log10 Kd (nM)": "4.05", "empty controls": "1/9 (4.50)"}

Parent in this assay: reference entry 0.65, copy in this library 1.68.